From publication PMC8290231, “GZD824 overcomes FGFR1‐V561F/M mutant resistance in vitro and in vivo” (Cancer Medicine, 2021)

Amino acid sequences for entries named in this document (tags omitted). Residues count along the entry.
UniProt P11362, 22-822: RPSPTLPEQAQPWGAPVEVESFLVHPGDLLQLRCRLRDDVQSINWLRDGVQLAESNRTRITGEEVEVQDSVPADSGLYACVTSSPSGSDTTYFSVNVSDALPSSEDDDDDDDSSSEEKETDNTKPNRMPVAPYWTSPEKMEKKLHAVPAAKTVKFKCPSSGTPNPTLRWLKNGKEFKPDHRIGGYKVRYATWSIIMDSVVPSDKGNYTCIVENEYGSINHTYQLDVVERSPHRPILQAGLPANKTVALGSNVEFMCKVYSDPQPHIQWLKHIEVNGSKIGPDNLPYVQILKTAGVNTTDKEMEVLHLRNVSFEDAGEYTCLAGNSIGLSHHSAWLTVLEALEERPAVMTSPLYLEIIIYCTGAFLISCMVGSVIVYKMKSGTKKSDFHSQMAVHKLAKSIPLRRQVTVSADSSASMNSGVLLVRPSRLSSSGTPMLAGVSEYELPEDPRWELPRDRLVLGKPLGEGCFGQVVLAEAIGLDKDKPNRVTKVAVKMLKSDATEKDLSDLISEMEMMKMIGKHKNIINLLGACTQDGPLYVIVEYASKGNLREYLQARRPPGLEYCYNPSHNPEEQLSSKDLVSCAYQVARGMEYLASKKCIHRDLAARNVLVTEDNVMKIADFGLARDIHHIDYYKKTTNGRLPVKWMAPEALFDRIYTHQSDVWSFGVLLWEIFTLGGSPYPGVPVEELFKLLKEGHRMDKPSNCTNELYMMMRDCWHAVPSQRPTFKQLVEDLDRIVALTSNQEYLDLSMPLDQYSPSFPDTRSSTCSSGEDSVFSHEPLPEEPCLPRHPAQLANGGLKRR

Target: T1, FGFR1 (Homo sapiens, UniProt P11362)
T1 construct: purchased Invitrogen (Waltham, MA, USA)
Assay: Cellular thermal shift assay (CETSA) in H1581 cells
Format: binding
Conditions: 1 μM, 38.0 to 57.8℃

Cc1ccc(C(=O)Nc2ccc(CN3CCN(C)CC3)c(C(F)(F)F)c2)cc1C#Cc1cnc2[nH]ncc2c1 [GZD824]
thermal stability of FGFR1 protein (CETSA): significantly enhanced
